Data from patent US11590089B2, “Beta-2 selective adrenergic receptor agonists” (The Board of Trustees of the Leland Stanford Junior …, priority 2017, dated 2023).
Structures can show the parent of a compound that is named as a salt.

Biological target: β2-AR (Homo sapiens, UniProt P07550)
Experiment: radioligand binding assay, β2-AR, [3H]CGP12177
Conditions: in words, refers to Table 1 and 2
Procedure: The binding affinities of exemplary compounds of interest at β1AR and β2AR were evaluated in a binding assay.

Row | SMILES | selectivity for β2-AR over β1-AR
1 | CN[C@@H]1CCc2c(ccc(O)c2O)[C@H]1O [AS443, (5R,6R)-6-(methylamino)-5,6,7,8-tetrahydronaphthalene-1,2,5-triol] | high selectivity
2 | N[C@@H]1CCc2c(ccc(O)c2O)[C@H]1O [AS446, (5R,6R)-6-amino-5,6,7,8-tetrahydronaphthalene-1,2,5-triol×TFA] | high selectivity
